Assay results published in US11311522B1 (Cavion, Inc., priority 2018, dated 2022).

Sequences of proteins named here, by UniProt entry; tags and fusion partners are left off.
UniProt Q9P0X4, whole entry, species assumed: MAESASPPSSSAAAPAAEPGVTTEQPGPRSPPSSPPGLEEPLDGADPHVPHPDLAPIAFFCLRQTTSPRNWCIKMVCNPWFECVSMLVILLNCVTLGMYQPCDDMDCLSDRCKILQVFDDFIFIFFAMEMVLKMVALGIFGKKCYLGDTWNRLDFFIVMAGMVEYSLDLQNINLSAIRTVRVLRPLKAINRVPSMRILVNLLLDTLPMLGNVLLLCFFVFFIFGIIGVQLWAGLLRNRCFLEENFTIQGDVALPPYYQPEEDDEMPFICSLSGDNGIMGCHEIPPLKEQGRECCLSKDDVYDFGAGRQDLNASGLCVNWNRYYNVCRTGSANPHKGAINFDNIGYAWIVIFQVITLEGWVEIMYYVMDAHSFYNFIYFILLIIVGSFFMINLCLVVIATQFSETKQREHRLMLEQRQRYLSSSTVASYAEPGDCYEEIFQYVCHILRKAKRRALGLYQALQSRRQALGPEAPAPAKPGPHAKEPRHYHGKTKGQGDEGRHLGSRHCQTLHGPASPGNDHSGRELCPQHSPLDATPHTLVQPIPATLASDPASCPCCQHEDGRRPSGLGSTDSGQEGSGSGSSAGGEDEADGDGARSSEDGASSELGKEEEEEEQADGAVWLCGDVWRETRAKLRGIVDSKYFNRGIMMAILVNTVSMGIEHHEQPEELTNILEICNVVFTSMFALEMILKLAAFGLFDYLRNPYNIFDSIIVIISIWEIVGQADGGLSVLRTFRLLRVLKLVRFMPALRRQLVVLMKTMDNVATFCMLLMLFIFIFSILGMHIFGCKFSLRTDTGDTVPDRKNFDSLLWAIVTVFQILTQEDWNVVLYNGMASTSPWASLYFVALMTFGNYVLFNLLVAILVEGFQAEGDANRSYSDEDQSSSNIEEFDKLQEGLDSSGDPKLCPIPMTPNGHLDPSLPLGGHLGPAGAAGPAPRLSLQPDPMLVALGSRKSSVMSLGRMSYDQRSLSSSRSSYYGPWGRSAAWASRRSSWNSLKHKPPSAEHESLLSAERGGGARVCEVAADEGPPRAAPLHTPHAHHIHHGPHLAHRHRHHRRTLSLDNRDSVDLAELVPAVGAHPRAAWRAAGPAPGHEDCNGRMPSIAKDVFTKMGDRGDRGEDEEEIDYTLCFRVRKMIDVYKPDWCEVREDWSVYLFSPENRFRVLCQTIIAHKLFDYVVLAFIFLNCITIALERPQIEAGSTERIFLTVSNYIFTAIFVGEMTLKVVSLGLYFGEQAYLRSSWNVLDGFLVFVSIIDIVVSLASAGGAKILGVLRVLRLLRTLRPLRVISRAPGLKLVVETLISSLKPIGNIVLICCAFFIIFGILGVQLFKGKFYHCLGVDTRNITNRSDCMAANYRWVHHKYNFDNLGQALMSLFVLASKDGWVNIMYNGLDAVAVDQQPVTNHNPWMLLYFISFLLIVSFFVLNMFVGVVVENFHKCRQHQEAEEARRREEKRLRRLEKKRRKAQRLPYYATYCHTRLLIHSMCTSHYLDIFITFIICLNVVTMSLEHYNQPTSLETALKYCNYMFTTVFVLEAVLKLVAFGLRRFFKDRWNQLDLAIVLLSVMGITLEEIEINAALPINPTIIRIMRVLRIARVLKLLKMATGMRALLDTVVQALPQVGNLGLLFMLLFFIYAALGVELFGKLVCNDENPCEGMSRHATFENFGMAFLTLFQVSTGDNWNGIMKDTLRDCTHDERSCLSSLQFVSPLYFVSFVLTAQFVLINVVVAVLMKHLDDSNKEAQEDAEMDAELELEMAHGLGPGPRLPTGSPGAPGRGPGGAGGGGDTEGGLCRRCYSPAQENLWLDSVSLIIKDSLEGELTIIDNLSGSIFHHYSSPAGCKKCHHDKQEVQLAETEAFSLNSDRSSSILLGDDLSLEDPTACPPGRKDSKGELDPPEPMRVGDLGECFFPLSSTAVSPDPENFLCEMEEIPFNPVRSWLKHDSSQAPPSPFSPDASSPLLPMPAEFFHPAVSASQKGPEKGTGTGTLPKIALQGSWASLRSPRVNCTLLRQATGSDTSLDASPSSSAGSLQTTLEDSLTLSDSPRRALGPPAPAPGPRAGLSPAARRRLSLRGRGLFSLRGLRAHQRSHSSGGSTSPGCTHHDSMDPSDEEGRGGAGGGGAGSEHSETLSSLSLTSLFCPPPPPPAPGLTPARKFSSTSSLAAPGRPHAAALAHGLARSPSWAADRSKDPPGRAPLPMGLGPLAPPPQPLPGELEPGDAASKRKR

What was measured:
in vivo [1] = conditions: Beagle, dog, plasma, po
airway resistance = experiment: Airway resistance in anesthetized male rats, IV; assay type: in vivo, rat; conditions: 6 mg/kg IV
in vivo [2] = conditions: rat, po
[3] = MR2 capsules fed versus fasted PK; assay type: in vivo; conditions: human, plasma, oral, 8 mg, single dose (1×8 mg) of MR2 CX-8998
Cav3 = biological target: T1, Cav3 (Homo sapiens, UniProt Q9P0X4); experiment: Cav3 potency and state dependency, summary of Cav3 antagonist pharmacological properties; assay type: cell-based
T1 construct: rows headed: State dependency

Pharmacokinetics in dogs = assay type: in vivo, dog
in vivo [4] = conditions: female, rat, po, 10 mg/kg/day
[5] = 4-week oral toxicology in rats (with FOB); conditions: rat, plasma
in vivo [6] = conditions: female, rat, po
[7] = 90-day oral toxicology in Beagle dogs
[8] = Pharmacokinetics in rhesus monkeys; assay type: in vivo; conditions: rhesus monkey, plasma, po, 20 mg/kg; single dose
[9] = Beagle dog, 10-day, 3, 30 and 300 mg/kg/day escalating oral doses; any dose
Cav3.3 = biological target: T2, Cav3.3 (Homo sapiens, UniProt Q9P0X4); experiment: Cav3.3 FLIPR calcium influx assay (HEK 293 cells); assay type: cell-based; conditions: hyperpolarized versus depolarized FLIPR potency
T2 construct: expressed in transfected cells; host or cells: HEK 293

[10] = system: patients with essential tremor; experiment: T-CALM: Patient Global Impression of Change (PGIC); assay type: in vivo, human; conditions: Day 15
Source text: Global rating of change (GRC) scales were designed to quantify a patient's improvement or deterioration over time, usually either to determine the effect of an intervention or to chart the clinical course of a condition. GRC scales ask a patient to assess his or her current health status, recall that status at the beginning of treatment, and then calculate the difference between the two. The simplicity of GRC scales makes them easy to administer and applicable to a wide range of patients (see, e.g., Kamper et al., 2009 The Journal of Manual & Manipulative Therapy 17(3):163-170).
Treatment success as measured by PGIC was summarized using descriptive statistics.

Pharmacokinetics in rats = assay type: in vivo, rat
[11] = 4-week oral toxicology in Beagle dogs; conditions: mean
in vivo [12] = conditions: Beagle, dog, po
[13] = Female dogs, 100/300 mg/kg/day oral gavage, Day 90, mean
[14] = Male dogs, 100/300 mg/kg/day oral gavage, Day 90, mean
[15] = female, Beagle, dog, in vivo, po, 30 mg/kg/day
[16] = male, Beagle, dog, in vivo, po, 10 mg/kg/day
[17] = male, beagle, dog, in vivo, po, 30 mg/kg/day
[18] = Female dogs, 2 mg/kg/day oral gavage, Day 28
[19] = Female dogs, 20 mg/kg/day oral gavage, Day 28
[20] = Female dogs, 800 mg/kg/day oral gavage, Day 28
[21] = Male dogs, 2 mg/kg/day oral gavage, Day 28
[22] = Male dogs, 20 mg/kg/day oral gavage, Day 28
[23] = Male dogs, 800 mg/kg/day oral gavage, Day 1
[24] = Male dogs, 800 mg/kg/day oral gavage, Day 28

`CC(C)c1ccc(CC(=O)N[C@H](C)c2ccc(OCC(F)(F)F)cn2)cc1` [CX-8998] gave an AUC (in vivo [1]; female, 2 mg/kg/day) of 40.8 µM·h, a Cmax (in vivo [1]; female, 2 mg/kg/day) of 5.98 µM and an AUC (in vivo [1]; female, 20 mg/kg/day) of 510 µM·h. The Cmax (in vivo [1]; female, 20 mg/kg/day) was 49.7 µM, the AUC (in vivo [1]; female, 800 mg/kg/day) was 1650 µM·h and the Cmax (in vivo [1]; female, 800 mg/kg/day) was 105 µM. It also gave an AUC (in vivo [1]; male, 2 mg/kg/day) of 48.2 µM·h, a Cmax (in vivo [1]; male, 2 mg/kg/day) of 13.4 µM and a Cmax (in vivo [1]; male, 20 mg/kg/day) of 49.4 µM. For the same compound, the Airway resistance (airway resistance) was “No change in airway resistance”, the AUC (in vivo [2]; female, 5 mg/kg/day) was 5.41 µM·h and the Cmax (in vivo [2]; female, 5 mg/kg/day) was 2.9 µM. It also gave an AUC (in vivo [2]; female, 15 mg/kg/day) of 26.6 µM·h, a Cmax (in vivo [2]; female, 15 mg/kg/day) of 6.4 µM and an AUC (in vivo [2]; female, 100 mg/kg/day) of 554 µM·h. The Cmax (in vivo [2]; female, 100 mg/kg/day) was 41 µM, the AUC (in vivo [2]; female, 300 mg/kg/day) was 566 µM·h and the Cmax (in vivo [2]; female, 300 mg/kg/day) was 52.9 µM. For the same compound, the AUC (in vivo [2]; male, 5 mg/kg/day) was 3.85 µM·h, the Cmax (in vivo [2]; male, 5 mg/kg/day) was 1.41 µM and the AUC (in vivo [2]; male, 15 mg/kg/day) was 12.1 µM·h. For the same compound, the Cmax (in vivo [2]; male, 15 mg/kg/day) was 5.41 µM, the AUC (in vivo [2]; male, 100 mg/kg/day) was 170 µM·h and the Cmax (in vivo [2]; male, 100 mg/kg/day) was 29.1 µM. For the same compound, the AUC (in vivo [2]; male, 300 mg/kg/day) was 261 µM·h, the Cmax (in vivo [2]; male, 300 mg/kg/day) was 22.5 µM and the “Day 90 Free Plasma Cmax at NOAEL for Rat 90-Day Toxicology” value (Female rats, 300 mg/kg/day) was 423 nM. For the same compound, the “Day 90 Free Plasma Cmax at NOAEL for Dog 90-Day Toxicology” value (Male dogs, 30 mg/kg/day) was 118 nM, the AUC [3] was 6.79 µM·h and the State dependency (Cav3) was 45 fold. For the same compound, the CL (Pharmacokinetics in dogs; Dog, IV […], mean (SD), 3 animals) was 1.5 (0.4) mL/min/kg, the Plasma clearance (Pharmacokinetics in dogs; dog, in vivo) was 1.5 mL/min/kg and the AUC (in vivo [4]) was 13.1 µM·h. It also gave a Cmax (in vivo [4]) of 5.91 µM, a Tmax ([5]; female, 30 mg/kg/day) of 30 min and an AUC ([5]; female, 30 mg/kg/day, AUC24, 30 mg/kg/day, female rats) of 43 µM·h. The AUC ([5]; female, 30 mg/kg/day, AUC24, Female rats, 30 mg/kg/day oral gavage, Day 28, mean (SD)) was 43.6 µM·h, the Cmax ([5]; female, 30 mg/kg/day, Cmax, Female rats, 30 mg/kg/day oral gavage, Day 28, mean (SD)) was 21.6 µM and the Cmax ([5]; female, 30 mg/kg/day, Cmax, female rats) was 21 µM. For the same compound, the Tmax ([5]; female, 2000 mg/kg/day) was 480 min, the AUC ([5]; female, 2000 mg/kg/day, AUC24, Female rats, 2000 mg/kg/day oral gavage, Day 28, mean (SD)) was 610 µM·h and the AUC ([5]; male, 30 mg/kg/day) was 35 µM·h. The Cmax ([5]; male, 30 mg/kg/day) was 13 µM, the Tmax ([5]; male, 30 mg/kg/day) was 30 min and the Cmax ([5]; male, 30 mg/kg/day, Cmax, Male rats, 30 mg/kg/day oral gavage, Day 28, mean (SD)) was 13.2 µM. The AUC ([5]; male, 300 mg/kg/day, AUC24, Male rats, 300 mg/kg/day oral gavage, Day 28, mean (SD)) was 333 µM·h, the Cmax (in vivo [6]; 10 mg/kg/day) was 5.2 µM and the Cmax (in vivo [6]; 100 mg/kg/day) was 14.7 µM. The Cmax (in vivo [6]; 500 mg/kg/day) was 24 µM, the AUC24 [7, 13] was 520 µM·h and the Cmax [7, 13] was 59.5 µM. The AUC24 [7, 14] was 1570 µM·h, the Cmax [7, 14] was 206 µM and the Tmax ([7]; Male dogs, 100/300 mg/kg/day oral gavage, Day 90, median) was 5.33 h. It also gave a Cmax ([7]; female, Beagle, dog, in vivo, po, 10 mg/kg/day) of 23.6 µM, an AUC [7, 15] of 363 µM·h and a Cmax [7, 15] of 43.4 µM. For the same compound, the Cmax ([7]; female, beagle, dog, in vivo, po, 30 mg/kg/day) was 43.4 µM, the AUC [7, 16] was 191 µM·h and the Cmax [7, 16] was 24.8 µM. The Cmax ([7]; male, Beagle, dog, in vivo, po, 30 mg/kg/day) was 39.4 µM, the AUC [7, 17] was 335 µM·h and the Cmax [7, 17] was 39.4 µM. For the same compound, the bioavailability [8] was less than 3%, the treatment-related findings [9] was “No treatment-related findings were” and the State dependence (Cav3.3) was 45 fold. For the same compound, the “PGIC Improved, number” value [10] was 26, the Cmax (Pharmacokinetics in rats; Rat, oral 10 mg/kg, mean (SD)) was 3.5 µM and the Tmax (Pharmacokinetics in rats; plasma, Rat, oral 10 mg/kg, mean (SD), read-out: Tmax) was 30 min. The AUClast (Pharmacokinetics in rats; rodents) was 6.3 µM·h, the Cmax (Pharmacokinetics in rats; rodents) was 3.5 µM and the Tmax (Pharmacokinetics in rats; rodents) was 30 min. For the same compound, the AUC24 [11, 18] was 42.7 µM·h, the Cmax [11, 18] was 6.42 µM and the Tmax [11, 18] was 0.83 h. It also gave an AUC24 [11, 19] of 372 µM·h, a Cmax [11, 19] of 39.8 µM and a Tmax ([11]; Female dogs, 800 mg/kg/day oral gavage, Day 1) of 12 h. For the same compound, the AUC24 [11, 20] was 890 µM·h, the Cmax [11, 20] was 59.1 µM and the Tmax [11, 20] was 2.6 h. For the same compound, the AUC24 [11, 21] was 50.4 µM·h, the Cmax [11, 21] was 7.12 µM and the AUC24 [11, 22] was 350 µM·h. For the same compound, the Cmax [11, 22] was 38 µM, the AUC24 [11, 23] was 1910 µM·h and the Tmax [11, 23] was 6.7 h. For the same compound, the AUC24 [11, 24] was 747 µM·h, the Cmax [11, 24] was 43.6 µM and the Tmax [11, 24] was 2.8 h. For the same compound, the AUC (in vivo [12]; female, 3 mg/kg/day) was 52.3 µM·h, the Cmax (in vivo [12]; female, 3 mg/kg/day) was 5.9 µM and the AUC (in vivo [12]; female, 30 mg/kg/day) was 933 µM·h. For the same compound, the Cmax (in vivo [12]; female, 30 mg/kg/day) was 58.5 µM, the Tmax (in vivo [12]; female, 30 mg/kg/day) was 4 h and the Tmax (in vivo [12]; female, 300 mg/kg/day) was 4 h. The AUC (in vivo [12]; male, 30 mg/kg/day) was 708 µM·h and the AUC (in vivo [12]; male, 300 mg/kg/day) was 1810 µM·h.
